Measured values from patent US20250320250A1, “PHARMACEUTICAL COMPOSITIONS FOR THE TREATMENT OF VISCERAL PAIN” (Ironwood Pharmaceuticals, Inc., priority 2021, published 2025).

What was measured:
[1] = Absorption of the peptide (stated property)
[2] = Solubility of the peptide at ambient temperature; assay type: physicochemical
From the text: Briefly the peptide is a 13 amino acid peptide with a primary amino acid of Cys1-Cth2-Glu3-Leu4-Cys5-Cys6-Asn7-Val8-Ala9-Cys10-Tyr11-Gly12-Cys13 (SEQ ID NO: 1), wherein Cth is a cystathionine; wherein Cys1 and Cys6; and Cys5 and Cys13, are connected by disulfide bonds; wherein Cth2 and Cys10 are connected by a thioether bond; and wherein the peptide has an acetylated N-terminus, and an unmodified C-terminus (hereinafter referred to as “the peptide”).

[3] = Dissociation constants (pKa), pH-metric / UV-metric; assay type: physicochemical
[4] = Stability and drug solubility of the peptide at pH 7.0 (foam formulation development); assay type: physicochemical
From the text: The following considerations were taken into account when developing the pharmaceutical rectal foam composition. […] From this, development work settled on the pH range of 6.5 to 7.5. To achieve this pH range for the bulk product; accordingly, a phosphate buffer system was chosen.

CC(=O)N[C@H]1CSSC[C@@H]2NC(=O)[C@@H]3CSSC[C@@H](C(=O)O)NC(=O)CNC(=O)[C@H](Cc4ccc(O)cc4)NC(=O)[C@H](CSCC[C@H](NC1=O)C(=O)N[C@@H](CCC(=O)O)C(=O)N[C@@H](CC(C)C)C(=O)N3)NC(=O)[C@H](C)NC(=O)[C@H](C(C)C)NC(=O)[C@H](CC(N)=O)NC2=O [the peptide, Ac-Cys1-Cth2-Glu3-Leu4-Cys5-Cys6-Asn7-Val8-Ala9-Cys10-Tyr11-Gly12-Cys13-OH]
absorption [1]: minimally absorbed | solubility ([2]; Acetonitrile): Insoluble | solubility ([2]; Dimethyl sulfoxide, read-out: Solubility): > 1 mg/mL | solubility ([2]; Hydrochloric acid (0.01N), read-out: Solubility): > 1 mg/mL | solubility ([2]; Methyl tert-butyl ether): Insoluble | solubility ([2]; Phosphate buffer (pH 7.0), read-out: Solubility): > 1 mg/mL | solubility ([2]; Water, read-out: Solubility): > 1 mg/mL | pKa ([3]; UV-metric, read-out: Dissociation constant pKa 3): 10.1 | pKa ([3]; pH-metric, read-out: Dissociation constant pKa 1): 3.87 | pKa ([3]; pH-metric, read-out: Dissociation constant pKa 2): 4.92 | solubility [4]: > 26.4 mg/mL | stability [4]: stable

Read-outs that look alike come from different tables or passages of the source.
